Literature values as cited in patent US11667649B2 (dated 2023).

Tested on: ALK-positive NSCLC and other cancers
Details: treatment of ALK-positive NSCLC and other cancers; cited from earlier work

C[C@@H](Oc1cc(-c2cnn(C3CCNCC3)c2)cnc1N)c1c(Cl)ccc(F)c1Cl [Crizotinib, crizotinib]
median progression-free survival: 8-11 months
overall response rate: 60-80%
